pIC50: −log10 of the molar value.
Target: Sodium-dependent noradrenaline transporter (Homo sapiens, UniProt P23975)
Assay: Inhibition of recombinant human norepinephrine transporter assessed as reduction in [3H]-NA reuptake

Protein sequences, listed by entry. Tags and fused reporters are not part of them.
UniProt P23975, whole entry: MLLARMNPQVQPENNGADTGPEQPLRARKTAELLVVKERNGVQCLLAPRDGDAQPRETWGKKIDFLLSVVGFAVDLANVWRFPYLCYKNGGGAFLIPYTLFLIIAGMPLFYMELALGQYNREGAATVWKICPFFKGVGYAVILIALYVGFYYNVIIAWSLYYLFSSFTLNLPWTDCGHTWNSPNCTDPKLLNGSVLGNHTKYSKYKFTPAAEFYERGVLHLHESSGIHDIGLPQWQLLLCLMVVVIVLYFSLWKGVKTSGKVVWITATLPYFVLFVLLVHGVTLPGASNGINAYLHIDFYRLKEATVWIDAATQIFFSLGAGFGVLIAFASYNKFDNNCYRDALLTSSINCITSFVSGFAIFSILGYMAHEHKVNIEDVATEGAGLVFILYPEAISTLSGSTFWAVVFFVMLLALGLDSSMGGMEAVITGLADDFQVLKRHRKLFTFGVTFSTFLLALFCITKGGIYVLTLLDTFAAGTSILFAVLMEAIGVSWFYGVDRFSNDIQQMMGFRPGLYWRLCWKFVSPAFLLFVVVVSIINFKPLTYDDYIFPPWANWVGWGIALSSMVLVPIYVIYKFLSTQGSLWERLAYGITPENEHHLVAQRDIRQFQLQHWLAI

Q: `CNC[C@]1(c2ccc3ccccc3c2)CC[C@@](C)(O)CC1` was tested. Which pIC50 did it give?
A: 7.48

Source: ChEMBL document CHEMBL3769327, “Emerging targets and new small molecule therapies in Parkinson's disease treatment” (Bioorg Med Chem, 2016)
